From US6664231B1, “Anti-fungal peptides” (priority 1993, dated 2003)

Key:
[1] = system: polyene-resistant (ATCC 38247), 5-fluorocytosine-resistant (ATCC 44373), azole-resistant (ATCC 62342), ketoconazole-resistant (ATCC 64124) C. albicans; experiment: Fungicidal activity on commercially-available drug-resistant Candida strains; assay type: cell-based, Candida albicans; conditions: ATCC 38247, 44373, 62342, 64124
Protocol: Further experiments were performed to determine the anti-fungal activity of Domain III derived peptides on commercially-available strains of Candida considered resistant to other anti-fungal agents: polyene-resistant C. albicans (ATCC Accession No. 38247), 5-fluorocytosine-resistant C. albicans (ATCC No. 44373), azole-resistant C. albicans (ATCC No. 62342), and ketoconazole-resistant C. albicans (ATCC No. 64124).

[2] = system: C. albicans (SLU-1 strain); experiment: Survival of mice systemically infected with Candida albicans; assay type: in vivo, mouse; conditions: 3-dose study
Protocol: Groups of 15 male DBA/2J mice at age 6-8 weeks (Jackson Laboratory, Bar Harbor, Me.) were inoculated with 1.24×10^5 C. albicans (SLU-1 strain as described in Example 2) by intravenous injection into the tail vein. Cells were prepared for animal injection as follows. A single colony was selected and used to inoculate a 5 mL tube of Sabouraud dextrose broth. Incubation was at 30° C. with shaking to allow aeration for a period of 15-18 hours. Four mL of the overnight culture were added to 100 mL of fresh Sabouraud dextrose broth (1:25 dilution) and incubated for 4 hours. The 100 mL culture was pelleted at 1,500×g for 5 minutes. Cells were washed twice by adding 20 mL D-PBS, vortexing and re-centrifuging. Cells were collected in one tube and a sample is diluted 1:10 to be measured by OD570 (1 OD unit=3×10^7 CFU/mL). […] Colonies were counted the following day after overnight incubation at 37° C. […]
Immediately after fungal challenge, the mice were intravenously injected via the tail vein with a 0.1 mL volume of 10 mg/kg XMP.36, 5 mg/kg XMP.97, 10 mg/kg XMP.102, 1 mg/kg amphotericin B (Sigma, St. Louis, Mo.), or phosphate buffered saline (PBS) as a control. […] Mice were monitored twice daily for mortality until termination of the study at Day 28. […] Statistical significance was evaluated using the Lifetest Survival Curve analysis. […]

Candida albicans SLU-1 = experiment: Survival of cyclosporin A-immunosuppressed mice systemically infected with Candida albicans; assay type: in vivo, mouse; conditions: cyclosporin A 10 mg/kg i.p.; 2×10^5 Candida cells; peptide 10 mg/kg, 6 doses; FIG. 7
Protocol: Studies were also performed to determine the effectiveness of representative anti-fungal peptides in cyclosporin A-immunosuppressed mice systemically infected with Candida albicans SLU-1. Groups (15 animals/group) of 9 week-old male DBA/2J mice were immunosuppressed by pretreatment with 10 mg/kg (Day-1) of cyclosporin A administered by intraperitoneal injection. One day later (Day 0), the mice were inoculated with 2×10^5 Candida cells by intravenous injection in the tail vein. Immediately after fungal challenge, the mice were treated with a 0.1 mL volume of 10 mg/kg XMP.284, 10 mg/kg XMP.127, or PBS as a control. Cyclosporin A injections were repeated at Day 1. Day 3. Day 7, and Day 9. XMP.284, XMP.127 or PBS injections were repeated at Day 2, Day 4, Day 6, Day 8 and Day 10. […]. […] However.

| Compound | Fungicidal activity on resistant strains [1] | p compared to control (survival) ([2]; 1.24×10^5 C. albicans, FIG. 4, Lifetest Survival Curve analysis) | protection against infection, survival compared with PBS controls (Candida albicans SLU-1) | p compared to control (survival) ([2]; 0.5×10^5 Candida cells, FIG. 5) |
| --- | --- | --- | --- | --- |
| CC[C@H](C)[C@H](NC(=O)[C@H](CC(C)C)NC(=O)[C@H](Cc1c[nH]c2ccccc12)NC(=O)[C@H](CCCCN)NC(=O)[C@@H](NC(=O)[C@H](CCCCN)NC(=O)[C@H](CO)NC(=O)[C@@H](N)CCCCN)C(C)C)C(=O)N[C@@H](CCC(N)=O)C(=O)N[C@@H](CC(C)C)C(=O)N[C@@H](Cc1ccccc1)C(=O)N[C@@H](Cc1c[nH]cn1)C(=O)N[C@@H](CCCCN)C(=O)N[C@@H](CCCCN)C(N)=O [XMP.97] | not reduced | < 0.05 | – | – |
| CC[C@H](C)[C@H](NC(=O)[C@H](CC(C)C)NC(=O)[C@H](Cc1ccccc1)NC(=O)CNC(=O)[C@@H](NC(=O)[C@H](CCCCN)NC(=O)[C@H](CO)NC(=O)[C@@H](N)CCCCN)C(C)C)C(=O)N[C@@H](CCC(N)=O)C(=O)N[C@@H](CC(C)C)C(=O)N[C@@H](Cc1ccccc1)C(=O)N[C@@H](Cc1c[nH]cn1)C(=O)N[C@@H](CCCCN)C(=O)N[C@@H](CCCCN)C(N)=O [XMP.127] | not reduced | – | to a lesser extent | < 0.05 |
